# Test results: US5840712A, “Water soluble vitamin B12 receptor modulating agents and methods related thereto” (Receptagen Corporation, priority 1995, dated 1998)
# Chains of the proteins cited; added tags and fusions are not shown. Residues count along the entry.
# UniProt P20062, 19-427 limits assumed: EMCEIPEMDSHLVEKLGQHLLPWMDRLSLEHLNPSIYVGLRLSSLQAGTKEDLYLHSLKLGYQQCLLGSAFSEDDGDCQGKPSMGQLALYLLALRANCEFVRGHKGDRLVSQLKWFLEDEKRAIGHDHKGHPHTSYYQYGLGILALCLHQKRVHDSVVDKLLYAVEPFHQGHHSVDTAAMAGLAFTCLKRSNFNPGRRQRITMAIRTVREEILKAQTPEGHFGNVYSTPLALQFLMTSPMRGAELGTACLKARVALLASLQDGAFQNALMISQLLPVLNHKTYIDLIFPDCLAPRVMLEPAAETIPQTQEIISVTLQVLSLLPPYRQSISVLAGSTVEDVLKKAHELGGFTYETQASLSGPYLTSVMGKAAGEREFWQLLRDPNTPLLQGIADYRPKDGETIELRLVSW
# Target: recombinant transcobalamin II (Homo sapiens, UniProt P20062)
# Experiment: Competitive binding assay of vitamin B12 derivatives to TcII versus radiolabeled B12
# Details: immobilized TcII, constant radiolabeled B12, 20 minutes at 37° C., picomolar concentrations
# Procedure: Binding of the vitamin B12 derivatives to recombinant transcobalamin II was conducted in picomolar concentrations and the percent bound ascertained.
# In this competitive binding assay, various B12 derivatives, including vitamin B12 receptor modulating agents, were evaluated for their ability to bind to TcII relative to radiolabeled B12. Varying concentrations of each derivative were incubated with immobilized TcII in the presence of a constant amount of radiolabeled B12. After incubation for 20 minutes at 37° C., the free radiolabeled B12 was separated from the TcII bound tracer by removal of the supernatant. The radioactivity of the supernatant solution was then measured to determine the amount of free radiolabeled B12 present at the end of each competition. By measuring the amount of free radiolabeled B12 for each competition, the ability of each derivative to inhibit radiolabeled B12 binding was determined. A binding curve was then be constructed for each B12 derivative where the amount of radiolabeled B12 bound (% radiolabel bound) was correlated with the concentration of derivative present in the original mixture.
substance,measurement,value
Cobalamin e-monocarboxylic acid conj Diaminododecane,"binding to TcII (ability to inhibit radiolabeled B12 binding), described in words from binding curve",not likely to bind TcII

# Only a part of the results on these compounds is given; other tests are left out.
